One data set addresses Jak2 (Homo sapiens, UniProt O60674).
The subject of data set [1] is Jak2-mediated phosphorylation of STAT5. The data set can be described thus: Jak2-mediated phosphorylation of STAT5 in blood cells after Aranesp stimulation. In kind it is in vivo, C57B1/6 mice. The following applies: co-treatment 60 mg/kg p.o., stimulation by Aranesp.
A short description of data set [2]: Treatment with Jak2 inhibitor alone, adverse effects (data not shown).
Data set [3] has as its system LF01-SSB-induced toxicities. The experiment in a line: LF01-SSB-induced toxicities in rats with or without inhibitor pretreatment. In kind it is in vivo.
For data set [4], the system named is LF01-SSB-induced lethality and visible hematuria. The data set can be described thus: Suppression of LF01-SSB-induced lethality and visible hematuria by inhibitors. The format is in vivo. To be noted: rats.
Where [5] appears, read: pre-treatment 1 hr prior to LF01-SSB 3 mg/kg IV.

By UniProt entry, the sequences of proteins in these tests, tags left out.
UniProt O60674, whole entry: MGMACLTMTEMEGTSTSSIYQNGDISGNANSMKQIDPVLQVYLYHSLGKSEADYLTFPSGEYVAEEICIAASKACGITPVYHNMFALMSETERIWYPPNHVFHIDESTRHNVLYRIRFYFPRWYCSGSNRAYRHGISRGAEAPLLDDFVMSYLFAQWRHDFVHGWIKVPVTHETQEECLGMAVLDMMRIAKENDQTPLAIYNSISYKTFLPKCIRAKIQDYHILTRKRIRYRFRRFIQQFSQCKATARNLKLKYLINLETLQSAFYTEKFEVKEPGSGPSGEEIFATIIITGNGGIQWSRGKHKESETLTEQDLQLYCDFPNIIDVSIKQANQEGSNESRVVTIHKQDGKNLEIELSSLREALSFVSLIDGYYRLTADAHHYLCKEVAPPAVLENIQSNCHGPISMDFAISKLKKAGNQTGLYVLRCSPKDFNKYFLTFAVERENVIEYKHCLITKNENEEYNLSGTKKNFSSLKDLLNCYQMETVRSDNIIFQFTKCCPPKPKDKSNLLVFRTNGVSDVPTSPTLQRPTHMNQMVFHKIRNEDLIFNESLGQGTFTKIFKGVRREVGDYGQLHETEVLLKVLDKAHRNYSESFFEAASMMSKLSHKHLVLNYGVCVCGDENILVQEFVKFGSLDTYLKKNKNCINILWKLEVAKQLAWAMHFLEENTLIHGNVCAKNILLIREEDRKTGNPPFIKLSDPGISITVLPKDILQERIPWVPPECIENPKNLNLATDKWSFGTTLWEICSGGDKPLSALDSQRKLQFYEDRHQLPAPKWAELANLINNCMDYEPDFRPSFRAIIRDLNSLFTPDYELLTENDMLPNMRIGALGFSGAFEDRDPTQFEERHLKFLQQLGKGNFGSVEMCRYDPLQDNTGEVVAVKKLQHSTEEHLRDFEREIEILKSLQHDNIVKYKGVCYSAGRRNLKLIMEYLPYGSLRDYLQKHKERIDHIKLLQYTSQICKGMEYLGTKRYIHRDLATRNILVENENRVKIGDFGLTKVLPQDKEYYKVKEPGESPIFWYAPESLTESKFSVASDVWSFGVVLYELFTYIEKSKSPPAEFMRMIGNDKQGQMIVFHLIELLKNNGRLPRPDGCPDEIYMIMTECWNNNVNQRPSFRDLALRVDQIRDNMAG

Consider `NC(=O)c1cnc(NC(C2CC2)C2CC2)c2c1[nH]c1cc(-c3cnc(N)nc3)ccc12`, for which, on Jak2, the IC50 stood at 1 nM. Also, the “duration of profound suppression of Jak2-mediated phosphorylation of STAT5 in blood cells” value in data set [1] is over 8 h. Further, the “adverse effects of treatment alone” value in data set [2] is given as “no adverse effects”. Besides, in data set [3] (plasma 3 hr post LF01-SSB dose), the “effect on LF01-siRNA induction of IFNγ” value is “profound inhibition”, the “effect on LF01-siRNA induction of IL-6” value is “profound inhibition”, the “effect on LF01-siRNA induction of MCP-1” value is “profound inhibition” and the “effect on LF01-siRNA induction of TNFα” value is given as “moderate suppression”. Moreover, in data set [3] (setting [5]), the “effect on LF01-SSB toxic responses (cytokine induction, ALT and AST elevation, thrombocytopenia, elongation of aPTT, hepatic and splenic cell death)” value is “suppressed all toxic responses”; the lethality after pre-treatment result is recorded as “no death”. The “effect on LF01-SSB-induced lethality and visible hematuria” value in data set [4] (pre-dosed 1 hr before LF01-SSB 9 mpk IV, monitored 96 hr) is “completely prevented”. Moreover, the “Rescue effect: Death, +inhibitor/−inhibitor” value in data set [4] (inhibitor 1 hr prior to LF01-SSB 9 mg/kg IV, deaths until 96 hr, animals with inhibitor/without inhibitor) was 0/5. In data set [4] (inhibitor 1 hr prior to LF01-SSB 9 mg/kg IV, urine collected over 24 hr, animals with inhibitor/without inhibitor), the “Rescue effect: Red urine, +inhibitor/−inhibitor” value was 0/5.

By IC50 is commonly meant the point on the concentration scale where inhibition reaches its midpoint.

(Values after patent publication US20120157500A1, “JAK INHIBITION BLOCKS RNA INTERFERENCE ASSOCIATED TOXICITIES” (priority 2009, published 2012).)
